Laboratory results published in patent publication US9227973B2, “Pyridine CGRP receptor antagonists” (Merck Sharp & Dohme Corp., priority 2012, dated 2016).

Amino acid sequences for entries named in this document (tags omitted). Residues count along the entry.
UniProt O60894, 27-148: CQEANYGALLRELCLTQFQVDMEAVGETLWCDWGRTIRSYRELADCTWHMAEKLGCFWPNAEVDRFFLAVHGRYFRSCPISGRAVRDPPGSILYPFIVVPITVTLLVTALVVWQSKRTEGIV
UniProt Q16602, 23-461: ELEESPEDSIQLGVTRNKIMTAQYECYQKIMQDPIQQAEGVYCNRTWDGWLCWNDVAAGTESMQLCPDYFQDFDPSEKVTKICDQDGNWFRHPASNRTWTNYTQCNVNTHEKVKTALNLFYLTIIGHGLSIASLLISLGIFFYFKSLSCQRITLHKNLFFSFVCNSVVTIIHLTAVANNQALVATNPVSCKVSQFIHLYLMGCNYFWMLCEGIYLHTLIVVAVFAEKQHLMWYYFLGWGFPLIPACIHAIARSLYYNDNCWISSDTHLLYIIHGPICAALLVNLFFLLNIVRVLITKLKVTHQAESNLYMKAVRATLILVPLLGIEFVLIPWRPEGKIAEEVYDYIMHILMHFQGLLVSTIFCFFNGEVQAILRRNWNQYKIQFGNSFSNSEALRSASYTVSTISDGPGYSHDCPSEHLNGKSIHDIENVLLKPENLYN

Target: recombinant human CL receptor/RAMP1 (CGRP receptor) (Homo sapiens (Human), UniProt O60894+Q16602)
Test: Recombinant receptor functional assay (Assay C), cAMP HTRF
Type: cell-based
Details: Assay C: HEK 293 cells, 3,500 cells/well, human α-CGRP 1 nM, cAMP inflection point
Protocol: RECOMBINANT RECEPTOR: Human CL receptor (Genbank accession number L76380) was subcloned into the expression vector pIREShyg2 (BD Biosciences Clontech) as a 5′NheI and 3′ PmeI fragment. Human RAMP1 (Genbank accession number AJ001014) was subcloned into the expression vector pIRESpuro2 (BD Biosciences Clontech) as a 5′NheI and 3′NotI fragment. HEK 293 cells (human embryonic kidney cells; ATCC #CRL-1573) were cultured in DMEM with 4.5 g/L glucose, 1 mM sodium pyruvate and 2 mM glutamine supplemented with 10% fetal bovine serum (FBS), 100 units/mL penicillin and […] streptomycin, and maintained at 37° C. and 95% humidity. Cells were subcultured by treatment with 0.25% trypsin with 0.1% EDTA in HBSS. Stable cell line generation was accomplished by co-transfecting 10 μg of DNA with 30 μg Lipofectamine 2000 (Invitrogen) in 75 cm^2 flasks. CL receptor and RAMP1 expression constructs were co-transfected in equal amounts. […]
RECOMBINANT RECEPTOR FUNCTIONAL ASSAY (Assay C): Cells were resuspended in DMEM/F12 (Hyclone) supplemented with 1 g/L BSA and 300 μM isobutyl-methylxanthine. […] Raw data were transformed into concentration of cAMP using a standard curve then dose response curves were plotted and inflection point (IP) values were determined

| IC50 [µM] | Structure (SMILES) |
| --- | --- |
| 0.022 | O=C(N[C@@H]1CC[C@@H](c2cccc(F)c2F)[C@@H](F)c2cccnc21)c1cnc2c(c1)C[C@@]1(C2)C(=O)Nc2ncccc21 [Example 8C, (S)—N-((5R,6S,9R)-6-(2,3-difluorophenyl)-5-fluoro-6,7,8,9-tetrahydro-5H-cyclohepta[b]pyridin-9-yl)-2′-oxo-1′,2′,5,7-tetrahydrospiro[cyclopenta[b]pyridine-6,3′-pyrrolo[2,3-b]pyridine]-3-carboxamide] |
| 0.57 | O=C(N[C@H]1CC[C@H](c2cccc(F)c2F)[C@H](F)c2cccnc21)c1cnc2c(c1)C[C@@]1(C2)C(=O)Nc2ncccc21 [Example 8D, (S)—N-((5S,6R,9S)-6-(2,3-difluorophenyl)-5-fluoro-6,7,8,9-tetrahydro-5H-cyclohepta[b]pyridin-9-yl)-2′-oxo-1′,2′,5,7-tetrahydrospiro[cyclopenta[b]pyridine-6,3′-pyrrolo[2,3-b]pyridine]-3-carboxamide] |
